Test results reported in patent US20230066008A1, “ANTIPARASITIC COMPOSITION” (DERMALIQ THERAPEUTICS, INC., priority 2020, published 2023).

Details: 50 mg/ml (5% w/v) in F4H8, shaken at 280 rpm, RT for 16 h
Protocol: 500 mg crotamiton (SynTech, Ph.Eur. grade) is weighed in a 5-ml volumetric flask; the flask is then filled to 5 ml with F6H8 (Novaliq, purity >99%), closed and shaken for 5 min at 280 rpm, RT.

In the case of `CC1(C)C(C=C(Cl)Cl)C1C(=O)OCc1cccc(Oc2ccccc2)c1` (stereo not shown) [Permethrin, permethrin], the “Appearance of resulting solution” value is reported as “clear”.
